## Ab-95 light chain CDR variants: yeast mating affinities

Antigen: PDVDLGDISGINAS, a 14-residue peptide of the SARS-CoV-2 spike HR2 region.

Parent: Ab-95, a human scFv built as VH, a 15-residue (Gly4Ser)3 linker, VL. Only the CDRs of the light chain vary.
VH: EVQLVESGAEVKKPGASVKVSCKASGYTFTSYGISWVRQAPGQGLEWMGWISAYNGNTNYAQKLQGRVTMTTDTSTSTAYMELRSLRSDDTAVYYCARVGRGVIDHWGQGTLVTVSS
VL: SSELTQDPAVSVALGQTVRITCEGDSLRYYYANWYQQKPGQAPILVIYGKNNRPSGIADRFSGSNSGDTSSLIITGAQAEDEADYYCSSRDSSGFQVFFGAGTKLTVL

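Variants in AAYL52 differ from the parent at up to three CDR positions; double and triple changes were sampled at random. AlphaSeq pools MATa yeast showing the antibodies with MATalpha yeast showing the peptide. The frequency of each diploid, read from paired DNA barcodes, reflects how well the two displayed proteins bind. Scores were corrected for input abundance and mapped to Kd with protein pairs of known affinity run in the same pool. The assay was run in three technical replicates.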

The parent's light chain CDRs are EGDSLRYYYAN, GKNNRPS, SSRDSSGFQVF; each variant's own CDRs replace them letter for letter. Values are log10 of the apparent Kd in nM; lower means stronger binding. The mean shown is taken over the replicates in which the pair was detected. "n.d." means that the variant was in the library but no mating with the target was seen in that replicate; the authors take this as a sign of poor binding, and no number exists. Nonspecific signal, from three strains lacking the peptide, appeared in 28% of pairings of library AAYL52, centred on 3.91 (5% of these signals below 2.90); values are not corrected for it. The control count says in how many pairings with the empty strains this scFv gave a signal, with their mean in brackets. In this assay the parent's reference entry averaged 2.31; its copy inside this library read 2.25.

| # | CDR-L1 | CDR-L2 | CDR-L3 | log10 Kd, replicates | mean log10 Kd (nM) | empty controls |
|---|---|---|---|---|---|---|
| 1 | EGDSLRYYYAC | GKFNRPS | SSRDSSGFQVH | 3.83 n.d. n.d. | 3.83 | 1 of 9 (4.37) |
| 2 | EGDSLRCYYDN | GVNNRPS | SSRDSSGFQVF | n.d. n.d. n.d. | n.d. | 3 of 9 (4.26) |
| 3 | EGDSLRYYYIN | GKNNRKS | SSRDSSGFQVF | n.d. n.d. n.d. | n.d. | 0 of 9 |
| 4 | EGCSLRYPYAN | GKNNRPS | SSRDSSGFIVF | 2.91 4.22 4.40 | 3.84 | 3 of 9 (3.80) |
| 5 | EGDSLRYYYAN | GKNNRPS | SSRDFSGRQVG | 2.61 2.58 2.19 | 2.46 | 3 of 9 (3.86) |
| 6 | EGDSLRYYYAN | GKNKRPL | YSRDSSGFQVF | 3.22 4.92 3.17 | 3.77 | 5 of 9 (4.06) |
| 7 | EGDSLRYYYAN | GWNNRPS | SSRLSSGFFVF | 5.71 3.17 3.81 | 4.23 | 5 of 9 (4.57) |
| 8 | LLDSLRYYYAN | GKNNRPS | SSRDSSGFQGF | 4.15 3.73 n.d. | 3.94 | 5 of 9 (4.07) |
| 9 | EGDSLRKYNAN | GKPNRPS | SSRDSSGFQVF | 3.36 2.92 n.d. | 3.14 | 2 of 9 (3.47) |
| 10 | EGDSLRYYYAH | GKNNYPS | SSRDSSGFQVI | n.d. n.d. n.d. | n.d. | 2 of 9 (3.78) |
| 11 | EGDSLRYYYAR | GKNNRPS | SSRDLSGFQVF | 3.01 n.d. 3.68 | 3.35 | 2 of 9 (4.38) |
| 12 | EGDSLRYHYAN | GKNNRWS | SSRDSSGFPVF | 2.12 2.64 2.81 | 2.52 | 2 of 9 (2.97) |
| 13 | EGDSLRPYYFN | CKNNRPS | SSRDSSGFQVF | n.d. 4.04 n.d. | 4.04 | 4 of 9 (3.50) |
| 14 | EGDSLRYMYAN | KGNNRPS | SSRDSSGFQVF | 2.31 1.86 1.72 | 1.96 | 6 of 9 (3.80) |
| 15 | EGDRLNYYYRN | GKNNRPS | SSRDSSGFQVF | 3.20 2.73 2.36 | 2.76 | 4 of 9 (3.50) |
| 16 | EGDSLRRKYAN | GKNNRPS | SSRDSSLFQVF | 3.87 3.05 n.d. | 3.46 | 5 of 9 (4.13) |
| 17 | EGDSLAYYQIN | GKNNRPS | SSRDSSGFQVF | 2.65 2.32 2.15 | 2.37 | 2 of 9 (3.94) |
| 18 | EGDSLRYYYAN | YKNNRRS | SSRDSEGFQVF | n.d. n.d. n.d. | n.d. | 0 of 9 |
| 19 | EGDSLRYYYAN | GKHNRPS | SSRDYSGFQVV | 3.44 2.94 3.58 | 3.32 | 2 of 9 (3.97) |
| 20 | EGDSLRYEYVN | GHNNRPS | SSRDSSGFQVF | 1.68 1.93 1.07 | 1.56 | 1 of 9 (5.20) |
| 21 | EGASLRQYYAN | GKNNRPS | SPRDSSGFQVF | n.d. n.d. n.d. | n.d. | 2 of 9 (2.48) |
| 22 | EGASLRYYHAN | GKNNRPS | SDRDSSGFQVF | 3.00 2.97 2.76 | 2.91 | 7 of 9 (4.27) |
| 23 | EGDSLRYYYAT | GKNNRPV | SSRDESGFQVF | n.d. n.d. n.d. | n.d. | 4 of 9 (3.89) |
| 24 | EGDHLRAVYAN | GKNNRPS | SSRDSSGFQVF | 1.78 1.39 1.37 | 1.52 | 0 of 9 |
| 25 | EGDSLRYYYAN | GKNNRPS | SSRSLSGFQWF | 3.15 2.75 2.42 | 2.77 | 2 of 9 (3.74) |
| 26 | EGDSLRYYYAN | GKNNRPD | SSRDSSGFRAF | 3.09 2.74 2.80 | 2.88 | 4 of 9 (3.49) |
| 27 | EGDSLRIMYAN | GKNNRPS | SSRDSSGFQVF | 2.38 2.26 2.55 | 2.40 | 3 of 9 (4.60) |
| 28 | EGDSLRYYYAK | GKNNRPS | SSRDSSGGQVF | n.d. n.d. 4.06 | 4.06 | 2 of 9 (3.89) |
| 29 | EGRSLRYMYAN | GYNNRPS | SSRDSSGFQVF | 2.96 2.44 n.d. | 2.70 | 0 of 9 |
| 30 | EGDRLRYYYKN | GKNNRPS | SSRDYSGFQVF | 2.05 1.80 1.77 | 1.88 | 2 of 9 (3.71) |
| 31 | EGDSLRYYLAN | GKNNQPS | SSRDSSVFQVF | 3.45 n.d. n.d. | 3.45 | 3 of 9 (4.05) |
| 32 | EGDSQRYYYAN | GKNNRPS | SSRDSSGLQPF | 3.92 4.23 4.12 | 4.09 | 2 of 9 (4.04) |
| 33 | EGDSHRYYYAN | GKNNKPS | STRDSSGFQVF | 3.00 3.67 3.44 | 3.37 | 3 of 9 (4.71) |
| 34 | GGDSLWYYYAN | GKNNRPS | SSRDSSGVQVF | 3.22 3.14 3.00 | 3.12 | 3 of 9 (3.93) |
| 35 | EGDHLRYYYAN | GKNNRPS | SSRDSSGGYVF | 3.08 3.92 n.d. | 3.50 | 4 of 9 (3.58) |
| 36 | EGDSLRYYYAN | GKFNRPP | SSRDSSGFQCF | 3.91 4.88 3.56 | 4.12 | 7 of 9 (4.06) |
| 37 | EGISLRYNYAN | GKNNRVS | SSRDSSGFQVF | 1.27 1.19 0.61 | 1.02 | 3 of 9 (3.75) |
| 38 | EGDSLRYYYAA | GKNNRPG | SSRDSSGFQIF | n.d. n.d. n.d. | n.d. | 5 of 9 (3.82) |
| 39 | EGDSLRYYYAN | GKNNRPS | SSRWFRGFQVF | 2.87 1.99 2.87 | 2.58 | 1 of 9 (3.77) |
| 40 | VGDSLRYYYAN | QKNNRVS | SSRDSSGFQVF | 4.16 4.43 4.73 | 4.44 | 2 of 9 (3.98) |
| 41 | EGDRYRSYYAN | GKNNRPS | SSRDSSGFQVF | n.d. 3.46 n.d. | 3.46 | 2 of 9 (4.14) |
| 42 | EGVSLRYYYAN | GKDNRPS | SSRDSSGFKVF | 3.80 3.19 3.81 | 3.60 | 1 of 9 (4.27) |
| 43 | EGDSLRTYYAN | GKNNRPS | SSRDSSGSQCF | 2.56 2.66 2.05 | 2.42 | 3 of 9 (4.24) |
| 44 | EGDSLRYYWAN | GKNLRPS | SSRDSSGCQVF | 4.47 5.56 4.30 | 4.78 | 5 of 9 (4.06) |
| 45 | LGDSLRYYYAN | GKNNRPS | SSCDSSGFQVF | 2.88 2.80 2.83 | 2.84 | 2 of 9 (3.22) |

For reference, 3 entries of the list once more:

CDR-L1,CDR-L2,CDR-L3,"log10 Kd, replicates",mean log10 Kd (nM),empty controls
EGDSLRYHYAN,GKNNRWS,SSRDSSGFPVF,2.12 2.64 2.81,2.52,2 of 9 (2.97)
EGDSLRYYYAT,GKNNRPV,SSRDESGFQVF,n.d. n.d. n.d.,n.d.,4 of 9 (3.89)
EGDSLRYMYAN,KGNNRPS,SSRDSSGFQVF,2.31 1.86 1.72,1.96,6 of 9 (3.80)

Reference: Engelhart et al. 2022, doi:10.1038/s41597-022-01779-4. File: FLAb, binding data.